This is an account of results in publication PMC10892409, “Exploring Ocimum basilicum’s Secondary Metabolites: Inhibition and Molecular Docking against Rhynchophorus ferrugineus for Optimal Action” (Plants, 2024).

In the data set the test system is R. ferrugineus adults. Put plainly: Antifeedant/insecticidal test on adults with treated sugarcane stem (probit LC50). The settings on record: after 1 day of treatment, 95% confidence limits in brackets.

Turning to Chicoric acid, the LC50 is listed as 1097 (1016–1175) µg/mL.
